In PMC9907071 (Proceedings of the National Academy of Sciences of the …, 2022):

Legend:
[1] = molecular target: T1, AbDHODH (Acinetobacter baumannii, UniProt B7GZW7); test: AbDHODH steady-state rate assay; format: biochemical; settings: matched imidazopyrimidine vs triazolopyrimidine
T1 sequence (B7GZW7 1-334): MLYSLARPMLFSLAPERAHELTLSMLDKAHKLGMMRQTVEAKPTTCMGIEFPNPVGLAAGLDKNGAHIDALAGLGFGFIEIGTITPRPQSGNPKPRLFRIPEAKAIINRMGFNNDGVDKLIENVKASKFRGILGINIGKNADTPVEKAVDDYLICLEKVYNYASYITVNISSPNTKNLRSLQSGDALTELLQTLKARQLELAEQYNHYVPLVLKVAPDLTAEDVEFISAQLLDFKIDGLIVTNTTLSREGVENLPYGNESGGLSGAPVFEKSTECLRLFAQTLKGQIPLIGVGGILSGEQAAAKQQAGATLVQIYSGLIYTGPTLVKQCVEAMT

[2] = test system: A. baumannii AB307-0294; test: Antimicrobial susceptibility testing in MM; format: cell-based, Acinetobacter baumannii
[3] = test system: A. baumannii HUMC1 (CR-XDR); test: Antimicrobial susceptibility testing in MM; format: cell-based, Acinetobacter baumannii; settings: HUMC1 and LAC-4 vs AB307
[4] = test system: A. baumannii AB307; settings: 1 × 10^9 CFU AB307 plated on MM + 1 µg/mL
[5] = test system: A. baumannii HUMC1; settings: 1 × 10^9 CFU HUMC1 plated on MM + 1 µg/mL

In the case of Cc1cc(Nc2ccc(S(F)(F)(F)(F)F)cc2)n2ccnc2n1 [DSM186], the “fold more potent than DSM161 on AbDHODH” value [1] is reported as 10 fold, the “fold EC50 for antibacterial activity on AB307 higher than enzyme inhibition” value [2] is reported as ~ 2 fold and the “fold difference in potency, drug-resistant strains vs drug-sensitive AB307” value [3] is reported as 3 fold. The “breakthrough growth (preexisting resistance)” value [4] was “No breakthrough growth occurred” and the “breakthrough growth (preexisting resistance)” value [5] was “No breakthrough growth occurred”.
